Target: Axl (Homo sapiens, UniProt P30530)
Assay: Phospho-Akt in-cell Western assay (inhibition of Axl activity)
Assay type: cell-based
Conditions: Hela cells; 1 hr pre-treatment; stimulation by Axl-antibody cross-linking; phospho-Akt chemiluminescence normalized to relative cell number
Method: The compounds of the invention were tested in the following assay for their ability to inhibit Axl activity.
Phospho-Akt in-Cell Western Assay […]

Amino acid sequences for entries named in this document (tags omitted). Residues count along the entry.
UniProt P30530, 26-894 limits assumed: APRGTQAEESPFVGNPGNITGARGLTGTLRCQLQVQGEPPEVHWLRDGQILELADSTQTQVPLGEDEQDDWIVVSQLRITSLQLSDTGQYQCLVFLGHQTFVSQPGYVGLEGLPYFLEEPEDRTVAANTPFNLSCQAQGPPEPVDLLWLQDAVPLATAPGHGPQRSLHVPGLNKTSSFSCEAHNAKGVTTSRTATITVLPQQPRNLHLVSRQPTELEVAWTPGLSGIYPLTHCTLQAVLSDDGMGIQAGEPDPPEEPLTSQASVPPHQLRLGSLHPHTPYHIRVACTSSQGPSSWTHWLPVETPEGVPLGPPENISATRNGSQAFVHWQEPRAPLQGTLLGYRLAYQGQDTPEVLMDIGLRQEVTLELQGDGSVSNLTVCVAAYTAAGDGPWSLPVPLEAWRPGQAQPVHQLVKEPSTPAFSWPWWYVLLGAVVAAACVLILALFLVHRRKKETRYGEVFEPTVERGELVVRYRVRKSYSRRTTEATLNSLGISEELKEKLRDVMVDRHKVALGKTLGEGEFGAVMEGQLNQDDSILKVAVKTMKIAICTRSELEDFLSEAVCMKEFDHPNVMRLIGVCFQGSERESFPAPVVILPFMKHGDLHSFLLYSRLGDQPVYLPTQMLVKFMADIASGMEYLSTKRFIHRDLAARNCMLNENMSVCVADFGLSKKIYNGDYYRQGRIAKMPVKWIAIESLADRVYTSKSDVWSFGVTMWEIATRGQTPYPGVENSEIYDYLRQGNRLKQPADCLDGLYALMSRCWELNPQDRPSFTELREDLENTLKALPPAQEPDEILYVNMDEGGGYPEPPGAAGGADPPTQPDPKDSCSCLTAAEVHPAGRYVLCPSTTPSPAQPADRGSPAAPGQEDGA

Structure (SMILES): CN1CCN(c2ccc(Nc3nc(N)n(-c4cc5c(nn4)CCCCCC5)n3)cc2)CC1
- IC50: < 1000 nM

— patent publication US8809347B2, “Bicyclic aryl and bicyclic heteroaryl substituted triazoles useful as AXL inhibitors” (Rigel Pharmaceuticals, Inc., priority 2006, dated 2014)
